# Earlier results, collected in article PMC4579270, “Identification and Characterization of an Irreversible Inhibitor of CDK2” (Chemistry & Biology, 2015).
# Target: CDK2
# Settings: ref Davies et al., 2002; cited from earlier work
structure (smiles),measurement,value
"NS(=O)(=O)c1ccc(Nc2nc(OCC3CCCCC3)c3nc[nH]c3n2)cc1 [NU6102, 4-((6-(Cyclohexylmethoxy)-9H-purin-2-yl)amino)benzenesulfonamide]",Ki,6 nM
